Measurements published in patent publication US6936585B2, “Corticotropin releasing factor 2 receptor agonists” (priority 2002, dated 2005).

What was measured:
CRF2R = biological target: T1, CRF2R (Homo sapiens, UniProt Q13324); assay: CRF2R agonist activation (EC50 / Emax), called comparative CRF binding; type: cell-based; conditions: for Emax: read-out: CRF2R Emax
T1 sequence (Q13324 1-411): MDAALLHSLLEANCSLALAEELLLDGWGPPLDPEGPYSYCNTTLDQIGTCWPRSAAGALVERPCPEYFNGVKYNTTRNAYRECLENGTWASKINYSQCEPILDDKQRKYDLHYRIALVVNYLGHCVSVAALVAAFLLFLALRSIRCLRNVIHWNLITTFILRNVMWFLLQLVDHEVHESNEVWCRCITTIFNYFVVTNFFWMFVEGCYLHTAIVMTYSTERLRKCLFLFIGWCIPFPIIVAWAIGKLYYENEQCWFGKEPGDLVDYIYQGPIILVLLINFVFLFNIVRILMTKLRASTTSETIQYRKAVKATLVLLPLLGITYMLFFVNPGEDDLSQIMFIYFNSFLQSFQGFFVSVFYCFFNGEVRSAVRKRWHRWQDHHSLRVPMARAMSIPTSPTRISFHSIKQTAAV
How it was run: (§1)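 Read-out is Gαs-driven cAMP induction, quantified directly in lysates or through CRE-reporter gene expression, after treating CRF1R- or CRF2R-expressing cells with peptide. Vehicle-treated cells serve as the comparison.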

CRF1R = biological target: T2, CRF1R (Homo sapiens, UniProt P34998); assay: CRF1R agonist activation (EC50 / Emax), called comparative CRF binding; type: cell-based; conditions: for EC50: CRF1R EC50; for Emax: read-out: CRF1R Emax
T2 sequence (P34998 24-415): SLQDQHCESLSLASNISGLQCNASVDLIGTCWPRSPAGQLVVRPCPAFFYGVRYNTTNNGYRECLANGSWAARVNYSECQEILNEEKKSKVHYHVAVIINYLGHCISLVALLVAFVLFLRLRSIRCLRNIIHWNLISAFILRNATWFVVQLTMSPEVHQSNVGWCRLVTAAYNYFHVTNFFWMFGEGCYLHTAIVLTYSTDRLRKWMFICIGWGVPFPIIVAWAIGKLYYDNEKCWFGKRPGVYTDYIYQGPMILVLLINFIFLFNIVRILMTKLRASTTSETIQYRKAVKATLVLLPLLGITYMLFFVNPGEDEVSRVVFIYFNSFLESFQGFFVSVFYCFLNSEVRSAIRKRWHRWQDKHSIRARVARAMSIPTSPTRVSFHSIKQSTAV
How it was run: as §1

SMILES	EC50 (CRF2R)	Emax (CRF2R)	EC50 (CRF1R)	Emax (CRF1R)
CC[C@H](C)[C@H](NC(=O)[C@@H](NC(=O)[C@H](CC(=O)O)NC(=O)[C@H](CC(C)C)NC(=O)[C@H](CC(C)C)NC(=O)[C@H](CC(C)C)NC(=O)[C@H](CCCNC(=N)N)NC(=O)[C@H](CC(N)=O)NC(=O)[C@H](CC(N)=O)NC(=O)[C@H](C)NC(=O)[C@H](C)NC(=O)[C@H](CCC(N)=O)NC(=O)[C@H](CCC(N)=O)NC(=O)[C@H](CCCCN)NC(=O)[C@H](CCC(=O)O)NC(=O)[C@H](CCCCN)NC(=O)[C@H](CCC(=O)O)NC(=O)[C@H](CCC(N)=O)NC(=O)[C@H](CCCCN)NC(=O)[C@H](CCC(=O)O)NC(=O)[C@@H](NC(=O)[C@H](CCC(=O)O)NC(=O)[C@@H](NC(=O)[C@H](CCSC)NC(=O)[C@H](CCCCN)NC(=O)[C@H](CCCNC(=N)N)NC(=O)[C@H](CC(C)C)NC(=O)[C@H](CC(C)C)NC(=O)[C@@H](NC(=O)[C@H](Cc1ccc(O)cc1)NC(=O)[C@@H]1CCCN1C(=O)[C@H](CC(C)C)NC(=O)[C@H](CC(=O)O)NC(=O)[C@@H](NC(=O)[C@H](CO)NC(=O)[C@@H](NC(=O)[C@@H]1CCCN1C(=O)[C@@H]1CCCN1C(=O)CNC(=O)[C@@H]1CCC(=O)N1)[C@@H](C)CC)[C@@H](C)CC)C(C)C)[C@@H](C)CC)[C@@H](C)CC)[C@@H](C)O)C(N)=O [compound 201]	5 nM	100%	99.6 nM	80%
CC[C@H](C)[C@H](NC(=O)[C@@H](NC(=O)[C@H](CC(=O)O)NC(=O)[C@H](CC(C)C)NC(=O)[C@H](CC(C)C)NC(=O)[C@H](CCCNC(=N)N)NC(=O)[C@H](C)NC(=O)[C@H](CC(N)=O)NC(=O)[C@H](CC(N)=O)NC(=O)[C@H](C)NC(=O)[C@H](C)NC(=O)[C@H](CCC(N)=O)NC(=O)[C@H](CCC(N)=O)NC(=O)[C@H](CCCCN)NC(=O)[C@H](CCC(=O)O)NC(=O)[C@H](CCCCN)NC(=O)[C@H](CCC(=O)O)NC(=O)[C@H](CCC(N)=O)NC(=O)[C@H](CCCCN)NC(=O)[C@H](CCC(=O)O)NC(=O)[C@@H](NC(=O)[C@H](CCC(=O)O)NC(=O)[C@@H](NC(=O)[C@@H](NC(=O)[C@H](CCCCN)NC(=O)[C@H](CCCNC(=N)N)NC(=O)[C@H](CC(C)C)NC(=O)[C@H](CC(C)C)NC(=O)[C@H](CCC(N)=O)NC(=O)[C@H](Cc1ccccc1)NC(=O)[C@@H]1CCCN1C(=O)[C@H](CC(C)C)NC(=O)[C@H](CC(=O)O)NC(=O)[C@@H](NC(=O)[C@H](CO)NC(=O)[C@@H](NC(=O)[C@@H]1CCCN1C(=O)[C@@H]1CCCN1C(=O)CNC(=O)[C@@H]1CCC(=O)N1)[C@@H](C)CC)[C@@H](C)CC)C(C)C)[C@@H](C)CC)[C@@H](C)CC)[C@@H](C)O)C(N)=O [compound 278]	19.6 nM		≥ 1000 nM	48.7%
CC[C@H](C)[C@H](NC(=O)[C@@H](NC(=O)[C@H](C)NC(=O)[C@H](CC(C)C)NC(=O)[C@H](CC(C)C)NC(=O)[C@H](CC(C)C)NC(=O)[C@H](C)NC(=O)[C@H](CC(N)=O)NC(=O)[C@H](CC(N)=O)NC(=O)[C@H](C)NC(=O)[C@H](C)NC(=O)[C@H](CCC(N)=O)NC(=O)[C@H](CCC(N)=O)NC(=O)[C@H](CCCCN)NC(=O)[C@H](CCC(=O)O)NC(=O)[C@H](CCCCN)NC(=O)[C@H](CCC(=O)O)NC(=O)[C@H](CCC(N)=O)NC(=O)[C@H](CCCCN)NC(=O)[C@H](CCC(=O)O)NC(=O)[C@@H](NC(=O)[C@H](CCC(=O)O)NC(=O)[C@@H](NC(=O)[C@@H](NC(=O)[C@H](CCC(=O)O)NC(=O)[C@H](CCCNC(=N)N)NC(=O)[C@H](CC(C)C)NC(=O)[C@H](CC(C)C)NC(=O)[C@H](CCC(N)=O)NC(=O)[C@H](Cc1ccccc1)NC(=O)[C@@H]1CCCN1C(=O)[C@H](CC(C)C)NC(=O)[C@H](CC(=O)O)NC(=O)[C@@H](NC(=O)[C@H](CO)NC(=O)[C@@H](NC(=O)[C@@H]1CCCN1C(=O)[C@@H]1CCCN1C(=O)CNC(=O)[C@@H]1CCC(=O)N1)[C@@H](C)CC)[C@@H](C)CC)C(C)C)[C@@H](C)CC)[C@@H](C)CC)[C@@H](C)O)C(N)=O [compound 359]		100%		100%
CC[C@H](C)[C@H](NC(=O)[C@@H](NC(=O)[C@H](CC(=O)O)NC(=O)[C@H](CC(C)C)NC(=O)[C@H](CC(C)C)NC(=O)[C@H](CC(C)C)NC(=O)[C@H](CCCNC(=N)N)NC(=O)[C@H](CC(N)=O)NC(=O)[C@H](CC(N)=O)NC(=O)[C@H](C)NC(=O)[C@H](C)NC(=O)[C@H](CCC(N)=O)NC(=O)[C@H](CCC(N)=O)NC(=O)[C@H](CCCCN)NC(=O)[C@H](CCC(=O)O)NC(=O)[C@H](CCCCN)NC(=O)[C@H](CCC(=O)O)NC(=O)[C@H](CCC(N)=O)NC(=O)[C@H](CCCCN)NC(=O)[C@H](CCC(=O)O)NC(=O)[C@@H](NC(=O)[C@H](CCC(=O)O)NC(=O)[C@@H](NC(=O)[C@H](CCSC)NC(=O)[C@H](CCCCN)NC(=O)[C@H](CCCNC(=N)N)NC(=O)[C@H](CC(C)C)NC(=O)[C@H](CC(C)C)NC(=O)[C@@H](NC(=O)[C@H](Cc1ccccc1)NC(=O)[C@@H]1CCCN1C(=O)[C@H](CC(C)C)NC(=O)[C@H](CC(=O)O)NC(=O)[C@@H](NC(=O)[C@H](CO)NC(=O)[C@@H](NC(=O)[C@@H]1CCCN1C(=O)[C@@H]1CCCN1C(=O)CNC(=O)[C@@H]1CCC(=O)N1)[C@@H](C)CC)[C@@H](C)CC)C(C)C)[C@@H](C)CC)[C@@H](C)CC)[C@@H](C)O)C(N)=O [compound 190]		31%		9%
CC[C@H](C)[C@H](NC(=O)[C@H](CCC(=O)O)NC(=O)[C@@H](NC(=O)[C@H](CCSC)NC(=O)[C@H](CCCCN)NC(=O)[C@H](CCCNC(=N)N)NC(=O)[C@H](CC(C)C)NC(=O)[C@H](CC(C)C)NC(=O)[C@H](CCC(N)=O)NC(=O)[C@H](Cc1ccccc1)NC(=O)[C@@H]1CCCN1C(=O)[C@H](CC(C)C)NC(=O)[C@H](CC(=O)O)NC(=O)[C@@H](NC(=O)[C@H](CO)NC(=O)[C@@H](NC(=O)[C@@H]1CCCN1C(=O)[C@@H]1CCCN1C(=O)CNC(=O)[C@@H]1CCC(=O)N1)[C@@H](C)CC)[C@@H](C)CC)[C@@H](C)CC)C(=O)N[C@@H](CCC(=O)O)C(=O)N[C@@H](CCCCN)C(=O)N[C@@H](CCC(N)=O)C(=O)N[C@@H](CCC(=O)O)C(=O)N[C@@H](CCCCN)C(=O)N[C@@H](CCC(=O)O)C(=O)N[C@@H](CCCCN)C(=O)N[C@@H](CCC(N)=O)C(=O)N[C@@H](CCC(N)=O)C(=O)N[C@@H](C)C(=O)N[C@H](C(=O)N[C@H](C(=O)N[C@@H](CC(N)=O)C(=O)N[C@@H](C)C(=O)N[C@@H](CCCNC(=N)N)C(=O)N[C@@H](CC(C)C)C(=O)N[C@@H](CC(C)C)C(=O)N[C@@H](CC(=O)O)C(=O)N[C@@H](CCCNC(=N)N)C(=O)N[C@H](C(N)=O)C(C)C)[C@@H](C)O)[C@@H](C)O [compound 22]	8.33 nM	100%	≥ 1000 nM	64%
CC[C@H](C)[C@H](NC(=O)[C@@H](NC(=O)[C@H](C)NC(=O)[C@H](CC(C)C)NC(=O)[C@H](CC(C)C)NC(=O)[C@H](CC(C)C)NC(=O)[C@H](C)NC(=O)[C@H](CC(N)=O)NC(=O)[C@H](CC(N)=O)NC(=O)[C@H](C)NC(=O)[C@H](C)NC(=O)[C@H](CCC(N)=O)NC(=O)[C@H](CCC(N)=O)NC(=O)[C@H](CCCCN)NC(=O)[C@H](CCC(=O)O)NC(=O)[C@H](CCCCN)NC(=O)[C@H](CCC(=O)O)NC(=O)[C@H](CCC(N)=O)NC(=O)[C@H](CCCCN)NC(=O)[C@H](CCC(=O)O)NC(=O)[C@@H](NC(=O)[C@H](CCC(=O)O)NC(=O)[C@@H](NC(=O)[C@@H](NC(=O)[C@H](CCCCN)NC(=O)[C@H](CCCNC(=N)N)NC(=O)[C@H](CC(C)C)NC(=O)[C@H](CC(C)C)NC(=O)[C@H](CCC(N)=O)NC(=O)[C@H](Cc1ccccc1)NC(=O)[C@@H]1CCCN1C(=O)[C@H](CC(C)C)NC(=O)[C@H](CC(=O)O)NC(=O)[C@@H](NC(=O)[C@H](CO)NC(=O)[C@@H](NC(=O)[C@@H]1CCCN1C(=O)[C@@H]1CCCN1C(=O)CNC(=O)[C@@H]1CCC(=O)N1)[C@@H](C)CC)[C@@H](C)CC)C(C)C)[C@@H](C)CC)[C@@H](C)CC)[C@@H](C)O)C(N)=O [compound 352]		83.7%		82.6%
